From patent US9687479B2, “Multisubstituted aromatic compounds as serine protease inhibitors” (VERSEON CORPORATION, priority 2013, dated 2017)

Amino acid sequences for entries named in this document (tags omitted). Residues count along the entry.
UniProt P03952, 391-638 limits assumed: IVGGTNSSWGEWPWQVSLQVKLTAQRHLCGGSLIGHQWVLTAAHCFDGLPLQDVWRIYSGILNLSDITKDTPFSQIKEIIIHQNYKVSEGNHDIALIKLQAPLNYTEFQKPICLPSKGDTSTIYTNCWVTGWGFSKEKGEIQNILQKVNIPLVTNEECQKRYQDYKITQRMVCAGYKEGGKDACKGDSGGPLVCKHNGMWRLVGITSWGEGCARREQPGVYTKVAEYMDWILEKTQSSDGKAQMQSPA
UniProt P03952, 20-390 partner limits assumed: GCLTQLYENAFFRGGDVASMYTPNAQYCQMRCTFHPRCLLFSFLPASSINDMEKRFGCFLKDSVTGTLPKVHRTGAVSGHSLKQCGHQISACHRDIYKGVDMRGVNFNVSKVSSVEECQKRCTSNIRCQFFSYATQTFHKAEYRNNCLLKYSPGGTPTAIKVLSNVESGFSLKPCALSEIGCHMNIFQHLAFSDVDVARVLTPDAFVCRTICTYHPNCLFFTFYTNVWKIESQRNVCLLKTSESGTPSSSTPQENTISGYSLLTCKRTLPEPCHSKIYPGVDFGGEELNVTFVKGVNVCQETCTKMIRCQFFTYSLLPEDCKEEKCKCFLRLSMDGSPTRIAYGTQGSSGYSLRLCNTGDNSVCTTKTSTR

Target: Human KLKB1 (Homo sapiens (Human), UniProt P03952)
Experiment: KLKB1 kallikrein activity inhibition assay (chromogenic substrate S-2302)
Type: biochemical
Conditions: read-out: KLKB1 Activity

## CCOC(=O)c1cn(-c2ccccn2)nc1NCc1ccc(F)cc1
  IC50: > 100 µM
